# Experimental data reported in ChEMBL document CHEMBL2218924, “A broad activity screen in support of a chemogenomic map for kinase signalling research and drug discovery” (Biochem J, 2013).
# Chains of the proteins cited; added tags and fusions are not shown. Lines headed by an entry give the natural chain unless they say otherwise; changes in a name come on top.
# UniProt Q15375: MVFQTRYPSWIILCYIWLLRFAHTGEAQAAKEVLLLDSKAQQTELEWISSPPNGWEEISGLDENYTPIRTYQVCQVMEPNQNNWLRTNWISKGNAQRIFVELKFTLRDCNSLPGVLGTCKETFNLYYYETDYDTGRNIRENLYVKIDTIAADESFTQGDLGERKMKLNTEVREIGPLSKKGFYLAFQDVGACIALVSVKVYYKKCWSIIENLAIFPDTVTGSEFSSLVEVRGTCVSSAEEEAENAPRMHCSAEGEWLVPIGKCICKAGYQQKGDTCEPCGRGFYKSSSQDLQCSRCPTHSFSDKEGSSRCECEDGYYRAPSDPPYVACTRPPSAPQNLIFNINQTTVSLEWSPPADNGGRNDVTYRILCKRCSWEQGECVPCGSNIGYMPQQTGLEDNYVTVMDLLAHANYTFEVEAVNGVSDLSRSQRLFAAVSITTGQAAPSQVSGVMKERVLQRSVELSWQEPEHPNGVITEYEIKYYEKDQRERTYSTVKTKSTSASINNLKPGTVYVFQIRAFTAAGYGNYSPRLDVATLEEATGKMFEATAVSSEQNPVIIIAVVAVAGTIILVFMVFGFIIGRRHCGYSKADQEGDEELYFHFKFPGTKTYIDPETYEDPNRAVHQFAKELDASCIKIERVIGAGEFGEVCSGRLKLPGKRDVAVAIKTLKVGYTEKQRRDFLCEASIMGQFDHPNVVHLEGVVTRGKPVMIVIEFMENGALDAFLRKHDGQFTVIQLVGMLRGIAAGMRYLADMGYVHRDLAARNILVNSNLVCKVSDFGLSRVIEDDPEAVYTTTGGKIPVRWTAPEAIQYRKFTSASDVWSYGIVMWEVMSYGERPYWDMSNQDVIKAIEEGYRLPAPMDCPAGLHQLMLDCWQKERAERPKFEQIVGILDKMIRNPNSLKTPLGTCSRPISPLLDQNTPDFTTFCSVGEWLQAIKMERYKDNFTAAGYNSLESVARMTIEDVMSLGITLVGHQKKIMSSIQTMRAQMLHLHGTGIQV
# UniProt P22607, whole entry, looked up: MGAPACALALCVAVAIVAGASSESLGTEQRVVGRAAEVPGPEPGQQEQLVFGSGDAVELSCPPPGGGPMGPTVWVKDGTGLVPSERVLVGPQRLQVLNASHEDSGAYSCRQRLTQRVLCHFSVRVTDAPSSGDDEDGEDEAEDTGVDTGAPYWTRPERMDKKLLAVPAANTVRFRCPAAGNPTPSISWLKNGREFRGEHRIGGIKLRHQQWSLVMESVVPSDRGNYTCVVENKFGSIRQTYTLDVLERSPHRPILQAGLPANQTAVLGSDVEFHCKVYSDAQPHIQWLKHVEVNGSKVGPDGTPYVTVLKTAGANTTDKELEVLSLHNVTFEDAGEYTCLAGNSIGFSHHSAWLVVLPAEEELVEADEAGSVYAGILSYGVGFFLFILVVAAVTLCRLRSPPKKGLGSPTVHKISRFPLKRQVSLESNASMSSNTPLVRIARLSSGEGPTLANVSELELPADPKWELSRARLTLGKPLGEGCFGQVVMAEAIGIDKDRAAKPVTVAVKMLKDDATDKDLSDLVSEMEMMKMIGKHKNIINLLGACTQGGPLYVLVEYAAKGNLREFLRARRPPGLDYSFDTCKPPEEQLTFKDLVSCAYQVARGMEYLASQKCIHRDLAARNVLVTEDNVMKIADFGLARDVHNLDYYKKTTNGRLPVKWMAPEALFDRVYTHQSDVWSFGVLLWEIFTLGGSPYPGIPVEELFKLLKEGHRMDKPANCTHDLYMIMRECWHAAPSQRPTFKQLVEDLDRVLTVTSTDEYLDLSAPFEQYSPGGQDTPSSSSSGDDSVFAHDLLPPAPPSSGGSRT
# UniProt P07332: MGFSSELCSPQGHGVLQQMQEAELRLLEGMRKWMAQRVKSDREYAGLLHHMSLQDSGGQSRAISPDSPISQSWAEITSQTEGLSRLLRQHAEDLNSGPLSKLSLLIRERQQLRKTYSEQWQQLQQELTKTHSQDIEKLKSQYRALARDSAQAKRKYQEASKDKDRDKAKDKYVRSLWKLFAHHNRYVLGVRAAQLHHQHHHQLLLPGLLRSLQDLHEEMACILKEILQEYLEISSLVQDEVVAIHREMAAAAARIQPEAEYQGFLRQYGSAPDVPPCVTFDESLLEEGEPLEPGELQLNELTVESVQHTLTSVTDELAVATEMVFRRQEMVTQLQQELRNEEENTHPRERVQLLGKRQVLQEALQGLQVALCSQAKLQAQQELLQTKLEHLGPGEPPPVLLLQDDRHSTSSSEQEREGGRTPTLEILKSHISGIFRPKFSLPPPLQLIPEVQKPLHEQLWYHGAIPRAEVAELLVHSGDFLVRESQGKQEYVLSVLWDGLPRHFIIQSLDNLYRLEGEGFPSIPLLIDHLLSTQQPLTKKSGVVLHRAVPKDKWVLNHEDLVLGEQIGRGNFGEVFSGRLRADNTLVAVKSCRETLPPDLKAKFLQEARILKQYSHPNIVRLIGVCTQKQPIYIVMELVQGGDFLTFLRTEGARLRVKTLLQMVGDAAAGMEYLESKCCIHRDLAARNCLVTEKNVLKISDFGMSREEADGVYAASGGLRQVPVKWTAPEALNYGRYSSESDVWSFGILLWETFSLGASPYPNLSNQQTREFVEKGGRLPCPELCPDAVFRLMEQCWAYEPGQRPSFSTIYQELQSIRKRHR
# UniProt P06241, whole entry, looked up: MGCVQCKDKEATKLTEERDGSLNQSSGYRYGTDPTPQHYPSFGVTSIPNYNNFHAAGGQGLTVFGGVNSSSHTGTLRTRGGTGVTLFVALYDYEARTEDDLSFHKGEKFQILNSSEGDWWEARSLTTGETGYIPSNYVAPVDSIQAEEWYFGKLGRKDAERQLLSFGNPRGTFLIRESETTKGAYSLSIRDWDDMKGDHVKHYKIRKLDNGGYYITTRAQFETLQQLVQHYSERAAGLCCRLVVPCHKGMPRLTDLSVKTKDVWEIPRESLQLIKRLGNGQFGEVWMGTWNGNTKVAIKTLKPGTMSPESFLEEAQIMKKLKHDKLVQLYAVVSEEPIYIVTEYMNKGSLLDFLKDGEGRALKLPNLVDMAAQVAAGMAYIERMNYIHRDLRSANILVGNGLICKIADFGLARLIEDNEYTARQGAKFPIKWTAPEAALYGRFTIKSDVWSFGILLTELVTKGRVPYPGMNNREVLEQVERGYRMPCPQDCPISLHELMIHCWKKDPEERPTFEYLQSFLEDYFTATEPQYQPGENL
# UniProt P43250, whole entry, looked up: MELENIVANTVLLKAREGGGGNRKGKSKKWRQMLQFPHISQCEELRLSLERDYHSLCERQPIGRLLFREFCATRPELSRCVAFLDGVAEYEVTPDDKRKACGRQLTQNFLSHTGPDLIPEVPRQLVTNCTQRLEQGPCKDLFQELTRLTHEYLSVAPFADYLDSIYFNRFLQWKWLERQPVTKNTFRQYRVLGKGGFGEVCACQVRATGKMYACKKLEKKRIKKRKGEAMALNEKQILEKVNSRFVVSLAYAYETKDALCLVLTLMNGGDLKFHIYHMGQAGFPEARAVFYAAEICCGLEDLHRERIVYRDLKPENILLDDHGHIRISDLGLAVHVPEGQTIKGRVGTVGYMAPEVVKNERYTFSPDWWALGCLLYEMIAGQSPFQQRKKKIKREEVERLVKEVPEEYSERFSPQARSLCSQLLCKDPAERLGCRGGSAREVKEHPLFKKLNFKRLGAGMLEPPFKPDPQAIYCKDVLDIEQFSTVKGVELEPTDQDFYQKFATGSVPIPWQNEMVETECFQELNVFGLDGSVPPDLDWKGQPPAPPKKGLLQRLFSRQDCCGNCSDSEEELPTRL
# UniProt Q86Z02: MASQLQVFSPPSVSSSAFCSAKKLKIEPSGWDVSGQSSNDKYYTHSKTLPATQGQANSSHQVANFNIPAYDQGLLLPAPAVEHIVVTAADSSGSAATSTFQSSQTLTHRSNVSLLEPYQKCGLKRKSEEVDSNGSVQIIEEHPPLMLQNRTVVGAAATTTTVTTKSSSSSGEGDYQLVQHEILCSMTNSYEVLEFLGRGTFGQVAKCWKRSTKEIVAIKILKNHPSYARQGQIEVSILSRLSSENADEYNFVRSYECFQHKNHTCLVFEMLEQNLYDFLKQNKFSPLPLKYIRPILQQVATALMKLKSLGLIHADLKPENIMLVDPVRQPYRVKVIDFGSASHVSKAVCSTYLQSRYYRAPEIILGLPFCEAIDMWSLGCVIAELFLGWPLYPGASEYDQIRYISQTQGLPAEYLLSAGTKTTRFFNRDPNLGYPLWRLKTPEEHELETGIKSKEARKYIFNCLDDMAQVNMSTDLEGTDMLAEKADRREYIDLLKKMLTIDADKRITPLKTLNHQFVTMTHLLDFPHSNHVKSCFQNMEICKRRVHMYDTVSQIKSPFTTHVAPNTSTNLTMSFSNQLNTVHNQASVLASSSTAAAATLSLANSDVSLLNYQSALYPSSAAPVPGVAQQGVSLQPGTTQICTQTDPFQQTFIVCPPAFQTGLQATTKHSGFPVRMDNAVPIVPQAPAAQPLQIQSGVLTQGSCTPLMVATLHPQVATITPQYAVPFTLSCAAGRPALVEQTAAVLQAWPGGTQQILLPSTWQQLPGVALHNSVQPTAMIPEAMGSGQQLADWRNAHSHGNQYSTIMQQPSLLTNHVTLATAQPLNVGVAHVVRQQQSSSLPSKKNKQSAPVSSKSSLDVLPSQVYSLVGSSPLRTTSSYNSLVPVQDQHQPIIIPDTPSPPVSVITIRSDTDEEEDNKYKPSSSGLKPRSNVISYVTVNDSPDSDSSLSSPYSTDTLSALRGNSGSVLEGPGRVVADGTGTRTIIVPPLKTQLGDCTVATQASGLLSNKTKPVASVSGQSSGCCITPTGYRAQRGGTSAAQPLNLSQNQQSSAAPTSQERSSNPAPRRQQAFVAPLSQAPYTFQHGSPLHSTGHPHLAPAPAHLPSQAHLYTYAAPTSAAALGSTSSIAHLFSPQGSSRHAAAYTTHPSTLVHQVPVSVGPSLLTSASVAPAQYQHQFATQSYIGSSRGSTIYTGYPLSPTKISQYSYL
# UniProt Q8TF76: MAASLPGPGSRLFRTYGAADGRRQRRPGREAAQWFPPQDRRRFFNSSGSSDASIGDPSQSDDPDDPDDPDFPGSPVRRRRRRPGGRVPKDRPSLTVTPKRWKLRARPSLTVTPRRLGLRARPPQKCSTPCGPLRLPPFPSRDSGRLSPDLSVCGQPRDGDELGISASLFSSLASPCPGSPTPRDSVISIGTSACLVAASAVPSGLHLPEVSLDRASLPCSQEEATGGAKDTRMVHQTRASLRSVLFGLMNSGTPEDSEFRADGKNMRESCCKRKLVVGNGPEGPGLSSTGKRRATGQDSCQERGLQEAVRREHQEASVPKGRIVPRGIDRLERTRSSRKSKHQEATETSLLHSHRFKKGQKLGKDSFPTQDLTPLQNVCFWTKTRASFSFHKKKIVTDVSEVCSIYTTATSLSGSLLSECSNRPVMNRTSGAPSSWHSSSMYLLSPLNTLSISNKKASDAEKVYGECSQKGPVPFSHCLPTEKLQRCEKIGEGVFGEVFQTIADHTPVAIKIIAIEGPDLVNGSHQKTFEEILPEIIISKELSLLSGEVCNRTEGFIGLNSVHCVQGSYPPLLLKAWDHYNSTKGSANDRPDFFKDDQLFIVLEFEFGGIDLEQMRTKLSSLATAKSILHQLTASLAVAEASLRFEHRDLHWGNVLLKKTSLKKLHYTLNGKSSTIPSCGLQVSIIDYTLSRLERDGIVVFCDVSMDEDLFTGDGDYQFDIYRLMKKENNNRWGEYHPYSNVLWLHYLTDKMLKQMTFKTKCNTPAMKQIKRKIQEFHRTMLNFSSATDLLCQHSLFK
# UniProt P08631: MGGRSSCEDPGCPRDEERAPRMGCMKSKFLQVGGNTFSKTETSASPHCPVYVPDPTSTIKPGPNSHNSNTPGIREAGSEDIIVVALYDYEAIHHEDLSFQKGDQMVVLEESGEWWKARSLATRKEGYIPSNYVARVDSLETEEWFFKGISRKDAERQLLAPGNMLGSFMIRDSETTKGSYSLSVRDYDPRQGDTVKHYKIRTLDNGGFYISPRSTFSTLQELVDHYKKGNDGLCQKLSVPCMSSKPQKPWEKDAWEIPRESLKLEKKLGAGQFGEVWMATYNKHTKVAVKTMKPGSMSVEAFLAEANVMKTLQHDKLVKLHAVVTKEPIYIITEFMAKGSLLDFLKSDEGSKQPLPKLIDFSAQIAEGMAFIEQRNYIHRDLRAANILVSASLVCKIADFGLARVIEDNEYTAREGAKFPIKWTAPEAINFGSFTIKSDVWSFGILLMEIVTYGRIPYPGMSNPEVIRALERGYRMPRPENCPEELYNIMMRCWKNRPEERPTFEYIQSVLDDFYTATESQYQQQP
# For some of these results: Most of the strong results are listed elsewhere, so they are rarer here than in the full data. The list shows a part of the results, in another mix than the full data.
# How the values were obtained:
# [1] = molecular target: Ephrin type-A receptor 7 (Homo sapiens) (UniProt Q15375); conditions: at 10 µM
# [2] = molecular target: T1, Ephrin type-A receptor 8 (Homo sapiens) (UniProt P29322); conditions: at 1 µM
# T1 sequence (whole entry): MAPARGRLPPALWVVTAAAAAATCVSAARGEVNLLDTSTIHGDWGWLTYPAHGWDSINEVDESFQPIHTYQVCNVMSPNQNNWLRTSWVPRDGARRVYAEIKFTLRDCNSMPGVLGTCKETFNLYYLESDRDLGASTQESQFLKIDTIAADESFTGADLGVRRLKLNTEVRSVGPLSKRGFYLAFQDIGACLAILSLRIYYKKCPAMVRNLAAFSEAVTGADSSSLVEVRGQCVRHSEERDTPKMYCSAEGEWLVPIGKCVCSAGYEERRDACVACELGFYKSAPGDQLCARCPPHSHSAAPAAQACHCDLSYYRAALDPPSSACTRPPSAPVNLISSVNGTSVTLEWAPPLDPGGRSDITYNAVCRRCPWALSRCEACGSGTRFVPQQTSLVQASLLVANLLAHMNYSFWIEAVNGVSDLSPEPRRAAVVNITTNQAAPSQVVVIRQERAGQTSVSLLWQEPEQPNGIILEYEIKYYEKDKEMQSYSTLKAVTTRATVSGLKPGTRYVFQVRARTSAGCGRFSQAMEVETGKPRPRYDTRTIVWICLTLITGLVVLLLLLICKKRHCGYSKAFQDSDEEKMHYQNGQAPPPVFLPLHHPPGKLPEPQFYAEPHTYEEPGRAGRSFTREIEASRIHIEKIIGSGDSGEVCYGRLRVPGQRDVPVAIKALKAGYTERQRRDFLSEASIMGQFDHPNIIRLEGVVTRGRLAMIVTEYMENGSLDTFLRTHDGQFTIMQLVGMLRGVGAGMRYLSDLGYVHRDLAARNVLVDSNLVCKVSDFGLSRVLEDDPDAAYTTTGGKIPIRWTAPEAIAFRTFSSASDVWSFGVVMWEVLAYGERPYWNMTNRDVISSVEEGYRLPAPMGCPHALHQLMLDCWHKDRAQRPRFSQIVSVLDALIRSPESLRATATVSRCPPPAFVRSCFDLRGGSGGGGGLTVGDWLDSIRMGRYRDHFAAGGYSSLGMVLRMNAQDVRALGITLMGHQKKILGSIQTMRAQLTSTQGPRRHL
# [3] = molecular target: T2, Ephrin type-B receptor 1 (Homo sapiens) (UniProt P54762); conditions: at 1 µM
# T2 sequence (whole entry): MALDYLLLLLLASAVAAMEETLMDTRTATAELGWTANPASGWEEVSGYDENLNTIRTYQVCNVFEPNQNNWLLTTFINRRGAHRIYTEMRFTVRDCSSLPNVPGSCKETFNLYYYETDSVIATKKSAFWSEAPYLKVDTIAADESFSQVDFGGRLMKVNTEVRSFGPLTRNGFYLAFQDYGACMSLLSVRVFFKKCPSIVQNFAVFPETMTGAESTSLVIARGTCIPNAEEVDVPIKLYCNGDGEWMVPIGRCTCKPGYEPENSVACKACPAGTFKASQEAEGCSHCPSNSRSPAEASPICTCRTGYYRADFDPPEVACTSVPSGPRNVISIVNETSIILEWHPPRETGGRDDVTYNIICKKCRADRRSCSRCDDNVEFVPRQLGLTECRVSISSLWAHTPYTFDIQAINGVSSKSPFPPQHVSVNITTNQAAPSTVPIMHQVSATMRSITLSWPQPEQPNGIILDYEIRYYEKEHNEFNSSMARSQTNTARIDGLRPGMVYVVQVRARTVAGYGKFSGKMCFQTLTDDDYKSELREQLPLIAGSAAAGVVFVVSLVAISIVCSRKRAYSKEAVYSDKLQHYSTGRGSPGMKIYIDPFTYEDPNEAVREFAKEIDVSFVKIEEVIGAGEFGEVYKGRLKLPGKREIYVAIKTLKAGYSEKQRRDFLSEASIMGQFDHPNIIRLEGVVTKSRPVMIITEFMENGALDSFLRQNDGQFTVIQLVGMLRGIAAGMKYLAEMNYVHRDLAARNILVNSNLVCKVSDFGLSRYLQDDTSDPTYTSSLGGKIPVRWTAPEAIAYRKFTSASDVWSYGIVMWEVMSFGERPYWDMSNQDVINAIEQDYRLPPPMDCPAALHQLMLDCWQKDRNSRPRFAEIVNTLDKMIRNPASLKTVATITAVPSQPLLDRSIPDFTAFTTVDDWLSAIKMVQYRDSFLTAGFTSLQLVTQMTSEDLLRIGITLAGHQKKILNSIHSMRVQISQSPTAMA
# [4] = molecular target: T2, Ephrin type-B receptor 1 (Homo sapiens); conditions: at 10 µM
# [5] = molecular target: Fibroblast growth factor receptor 3 (Homo sapiens) (UniProt P22607); conditions: at 1 µM
# [6] = molecular target: Tyrosine-protein kinase Fes/Fps (Homo sapiens) (UniProt P07332); conditions: at 1 µM
# [7] = molecular target: Tyrosine-protein kinase Fgr (Homo sapiens) (UniProt P09769); conditions: at 1 µM
# [8] = molecular target: Tyrosine-protein kinase Fyn (Homo sapiens) (UniProt P06241); conditions: at 1 µM
# [9] = molecular target: G protein-coupled receptor kinase 6 (Homo sapiens) (UniProt P43250); conditions: at 1 µM
# [10] = molecular target: Homeodomain-interacting protein kinase 1 (Homo sapiens) (UniProt Q86Z02); conditions: at 1 µM
# [11] = molecular target: Homeodomain-interacting protein kinase 1 (Homo sapiens) (UniProt Q86Z02); conditions: at 10 µM
# [12] = molecular target: Serine/threonine-protein kinase haspin (Homo sapiens) (UniProt Q8TF76); conditions: at 1 µM
# [13] = molecular target: Tyrosine-protein kinase HCK (Homo sapiens) (UniProt P08631); conditions: at 1 µM
smiles,measurement,setting,value
O=C1NC(=O)C(c2cn(CCCn3ccnc3)c3ccccc23)=C1Nc1ccccc1,residual activity,[1],88%
same,residual activity,[2],91%
same,residual activity,[3],94%
same,residual activity,[4],90%
same,residual activity,[5],98%
same,residual activity,[6],91%
same,residual activity,[7],98%
same,residual activity,[8],90%
same,residual activity,[9],85%
same,residual activity,[10],98%
same,residual activity,[11],97%
same,residual activity,[12],84%
same,residual activity,[13],95%
